Test results: IntAct's records for PubMed 24855271

Target: kap0_human PRKAR1A (UniProt P10644)

effect of a mutation on the interaction: disrupting interaction strength
Substance: cAMP-dependent protein kinase catalytic subunit alpha (Homo sapiens) (from UniProt P17612) L206R
